Tested on: 304 E. coli clinical isolates
Format: cell-based, Escherichia coli
Settings: 304-isolate panel, antibiotic combined with LBP-EC01 v.2

CC1=C(C(=O)O)N2C(=O)[C@@H](NC(=O)[C@H](N)c3ccccc3)[C@H]2SC1 [Cephalexin]
Host Range % on all Strains (n = 304), Combination: Antibiotic + LBP-EC01 v.2: 85.5%

Source: US20250345378A1 (priority 2022, published 2025)
